Data: patent US9758561B2 (priority 2014, dated 2017)
Like-named read-outs stand apart in the source and are kept apart here.

By UniProt entry, the sequences of proteins in these tests, tags left out. Residues count along the entry.
UniProt P43220, 24-463: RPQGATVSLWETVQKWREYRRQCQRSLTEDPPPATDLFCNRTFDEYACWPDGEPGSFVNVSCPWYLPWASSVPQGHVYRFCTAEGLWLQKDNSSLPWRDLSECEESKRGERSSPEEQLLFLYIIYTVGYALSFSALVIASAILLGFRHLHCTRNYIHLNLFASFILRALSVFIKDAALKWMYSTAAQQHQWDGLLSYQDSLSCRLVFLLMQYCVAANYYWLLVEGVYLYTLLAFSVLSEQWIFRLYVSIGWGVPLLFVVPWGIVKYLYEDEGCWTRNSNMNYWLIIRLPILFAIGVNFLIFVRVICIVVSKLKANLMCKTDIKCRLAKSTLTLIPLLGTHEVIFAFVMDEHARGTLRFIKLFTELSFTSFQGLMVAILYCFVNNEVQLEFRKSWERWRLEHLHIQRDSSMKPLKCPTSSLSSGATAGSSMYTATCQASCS

Legend:
[1] = Stability testing in solution, 7 days at 40° C. (HPLC-UV); assay type: physicochemical
Protocol: After that time course, the sample was centrifuged for 20 min at 4500 rpm and 0.2 μL of the supernatant were analysed with HPLC-UV.
For determination of the amount of the remaining peptide, the peak areas of the target compound at t0 and t7 were compared, resulting in “% remaining peptide”, following the equation % remaining peptide=[(peak area peptide t7)×100]/peak area peptide t0.
The stability is expressed as “% remaining peptide”.

human GLP-1 receptor = target: T1, human GLP-1 receptor (Homo sapiens, UniProt P43220); assay: cAMP response of HEK-293 cells stably expressing human GLP-1 receptor (HTRF); assay type: cell-based
T1 construct: expressed in transfected cells; host or cells: HEK-293
Protocol: For preparation, cells were split into T175 culture flasks and grown overnight to near confluency in medium (DMEM/10% FBS). Medium was then removed and cells washed with PBS lacking calcium and magnesium, followed by proteinase treatment with accutase (Sigma-Aldrich cat. no. A6964). Detached cells were washed and resuspended in assay buffer (1×HBSS; 20 mM HEPES, 0.1% BSA, 2 mM IBMX) and cellular density determined. They were then diluted to 400000 cells/ml and 25 μl-aliquots dispensed into the wells of 96-well plates. For measurement, 25 μl of test compound in assay buffer was added to the wells, followed by incubation for 30 minutes at room temperature. […] Potencies of peptidic compounds at the GLP-1, glucagon and GIP receptors were determined by exposing cells expressing human glucagon receptor (hGlucagon R), human GIP receptor (hGIP-R) or human GLP-1 receptor (hGLP-1R) to the listed compounds at increasing concentrations and measuring the formed cAMP as described in Methods.

[2] = Solubility testing in buffer (HPLC-UV); assay type: physicochemical; settings: target concentration 10 mg/ml
Protocol: Prior to the testing of solubility and stability of a peptide batch, its purity (HPLC-UV) was determined. […] Therefore, solutions from solid samples were prepared in different buffer systems with a concentration of 10 mg/mL compound based on the previously determined % purity. HPLC-UV was performed after 2 h of gentle agitation from the supernatant, which was obtained by 20 min of centrifugation at 4500 rpm. […] This analysis also served as starting point (t0) for the stability testing.

## CCCCCCCCCCCCCCCC(=O)N[C@@H](CCC(=O)N[C@@H](CCC(=O)NCCCC[C@H](NC(=O)[C@H](CCC(N)=O)NC(=O)[C@H](CCCCN)NC(=O)[C@H](CO)NC(=O)[C@H](CC(C)C)NC(=O)[C@H](CC(=O)O)NC(=O)[C@H](CO)NC(=O)[C@@H](NC(=O)[C@H](Cc1ccccc1)NC(=O)[C@@H](NC(=O)CNC(=O)[C@H](CCC(N)=O)NC(=O)[C@@H](CO)NC(=O)[C@@H](N)Cc1c[nH]cn1)[C@@H](C)O)[C@@H](C)O)C(=O)N[C@@H](CC(=O)O)C(=O)N[C@@H](CCC(=O)O)C(=O)N[C@@H](CCC(=O)O)C(=O)N[C@@H](C)C(=O)N[C@@H](C)C(=O)N[C@@H](CCCNC(=N)N)C(=O)N[C@@H](CC(C)C)C(=O)N[C@@H](Cc1ccccc1)C(=O)N[C@H](C(=O)N[C@@H](CCC(=O)O)C(=O)N[C@@H](Cc1c[nH]c2ccccc12)C(=O)N[C@@H](CC(C)C)C(=O)NC(C)(C)C(=O)N[C@@H](CCCCN)C(=O)NCC(=O)NCC(=O)N1CCC[C@H]1C(=O)N[C@@H](CO)C(=O)N[C@@H](CO)C(=O)NCC(=O)N[C@@H](C)C(=O)N1CCC[C@H]1C(=O)N1CCC[C@H]1C(=O)N1CCC[C@H]1C(=O)N[C@@H](CO)C(N)=O)[C@@H](C)CC)C(=O)O)C(=O)O [SEQ ID NO: 19, H-dSer-Q-G-T-F-T-S-D-L-S-K-Q-K(γE-γE-x53)-D-E-E-A-A-R-L-F-I-E-W-L-Aib-K-G-G-P-S-S-G-A-P-P-P-S-NH2]
[1]; pH 4.5, 7 days at 40° C. in solution
  Stability pH 4.5: 96.0 % remaining peptide
[1]; pH 7.4, 7 days at 40° C. in solution
  Stability pH 7.4: 96.0 % remaining peptide
Human GLP-1 receptor
  EC50: 2 pM
[2]; pH 4.5, read-out: solubility pH 4.5
  solubility at 2 h: > 8000 µg/mL
[2]; pH 7.4, read-out: solubility pH 7.4
  solubility at 2 h: > 8000 µg/mL
